# Measurements published in BindingDB's records for doi:10.1007/bf02311185 (Case Western Reserve University, 1995).
# The chains behind the UniProt entries cited, without tags or fusion partners.
# UniProt P14842, whole entry: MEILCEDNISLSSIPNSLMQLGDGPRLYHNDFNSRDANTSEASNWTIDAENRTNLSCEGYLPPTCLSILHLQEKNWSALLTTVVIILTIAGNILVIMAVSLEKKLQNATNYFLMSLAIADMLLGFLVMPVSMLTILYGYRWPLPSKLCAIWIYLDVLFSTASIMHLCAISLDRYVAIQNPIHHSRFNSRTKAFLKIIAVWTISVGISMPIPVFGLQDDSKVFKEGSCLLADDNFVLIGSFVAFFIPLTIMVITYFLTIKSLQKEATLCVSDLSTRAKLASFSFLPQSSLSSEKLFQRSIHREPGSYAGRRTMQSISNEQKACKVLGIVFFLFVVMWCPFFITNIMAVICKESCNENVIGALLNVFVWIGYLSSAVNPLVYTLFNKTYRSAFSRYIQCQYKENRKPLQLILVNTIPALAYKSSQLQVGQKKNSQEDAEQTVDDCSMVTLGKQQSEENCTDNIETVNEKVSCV
# Target: 5-hydroxytryptamine receptor 2A (Rattus norvegicus, UniProt P14842)
smiles,measurement,value
"O=C(CCCN1CCC2(CC1)C(=O)NCN2c1ccccc1)c1ccc(F)cc1 [8-[4-(4-fluorophenyl)-4-oxidanylidene-butyl]-1-phenyl-1,3,8-triazaspiro[4.5]decan-4-one]",Ki,300 pM
